Experimental data from ChEMBL document CHEMBL2321777, “Selective mGAT2 (BGT-1) GABA uptake inhibitors: design, synthesis, and pharmacological characterization” (J Med Chem, 2013).
pIC50: −log10 of the molar value.

Target: Sodium- and chloride-dependent GABA transporter 1 (Mus musculus, UniProt P31648)
Experiment: Inhibition of [3H]GABA uptake at mouse GAT1 expressed in HEK293 cells after 3 mins by scintillation counting analysis
Assay type: cell-based
Procedure, shortened: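 Uptake measured in primary mouse cortical astrocyte or neuron cultures, or in cells stably overexpressing the respective recombinant mGAT. Cells were incubated at 37 °C in phosphate-buffered saline with [3H]GABA (1 μCi/mL), 1 μM GABA and increasing inhibitor concentrations. After 3 min, uptake was stopped by automated washing. Cells were solubilized in scintillant, radioactivity was counted, and inhibition curves were analyzed.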

pIC50: 4.60
Structure (SMILES): O=C(O)[C@@H]1CCCNC1 [(R)-NIPECOTIC ACID]
